The values below come from US10561143B2, “Fungicidal composition having synergistic effect” (JIANGSU HUIFENG AGROCHEMICAL CO., LTD., priority 2013, dated 2020).

Experiment [1] deals with rust pathogens of wheat. Nature of the experiment: whole plant or invertebrate. Conditions: Triticum aestivum.
Experiment [2] relates to rust pathogens of wheat.
The mark [3] stands for this setting: Table 18, series with picoxystrobin.
Where [4] appears, read: Table 19, series with fluopicolide.

Converted amounts (≈) assume the structure as drawn. Where two headings read alike, the source gives them in different places.

`C[C@@]1(c2ccc(Oc3ccccc3)cc2)OC(=O)N(Nc2ccccc2)C1=O` (racemic) [Famoxadone] gave an EC50 in the experiment with rust pathogens of wheat [1] of 7.96 µg/mL (≈ 21.3 µM). As to `Cl.O=c1[nH]sc2ccccc12` [Benziothiazolinone hydrochloride], in the experiment on rust pathogens of wheat [2] (Table 16, series with fluazinam), the EC50 stood at 7.68 µg/mL. Turning to `O=c1[nH]sc2ccccc12` [Benziothiazolinone], the EC50 in the experiment with rust pathogens of wheat [2] (Table 17, series with prothioconazole) was 7.92 µg/mL (≈ 52.4 µM); in the experiment on rust pathogens of wheat [2] (setting [3]), 7.51 µg/mL (≈ 49.7 µM); in the experiment with rust pathogens of wheat [2] (setting [4]), 7.93 µg/mL (≈ 52.5 µM); in the experiment with rust pathogens of wheat [2] (Table 20, series with famoxadone), 7.51 µg/mL (≈ 49.7 µM). Turning to `O=[N+]([O-])c1cc(C(F)(F)F)c(Cl)c([N+](=O)[O-])c1Nc1ncc(C(F)(F)F)cc1Cl` [Fluazinam], the EC50 with rust pathogens of wheat [1] amounted to 8.15 µg/mL (≈ 17.5 µM).

`O=C(NCc1ncc(C(F)(F)F)cc1Cl)c1c(Cl)cccc1Cl` [Fluopicolide] returned an EC50 in the experiment on rust pathogens of wheat [2] (setting [4]) of 7.69 µg/mL (≈ 20 µM). In the experiment with rust pathogens of wheat [2] (setting [3]), `CO/C=C(/C(=O)OC)c1ccccc1COc1cccc(C(F)(F)F)n1` [Picoxystrobin] displayed an EC50 of 8.26 µg/mL (≈ 22.5 µM). Consider `OC(Cc1ccccc1Cl)(Cn1nc[nH]c1=S)C1(Cl)CC1` (stereo not shown) [Prothioconazole], for which a half-maximal effect with rust pathogens of wheat [1] (EC50) was put at 7.68 µg/mL (≈ 22.3 µM).
